Measured values published in patent publication US20250282834A1, “PEPTIDE INHIBITORS FOR CHROMODOMAIN HELICASE DNA BINDING PROTEIN 4 (CHD4)” (THE REGENTS OF THE UNIVERSITY OF CALIFORNIA, priority 2022, published 2025).
Entries after “also recorded” stand apart in the source; their conditions may differ.

Amino acid sequences for entries named in this document (tags omitted). Residues count along the entry.
UniProt Q14839, 1-512: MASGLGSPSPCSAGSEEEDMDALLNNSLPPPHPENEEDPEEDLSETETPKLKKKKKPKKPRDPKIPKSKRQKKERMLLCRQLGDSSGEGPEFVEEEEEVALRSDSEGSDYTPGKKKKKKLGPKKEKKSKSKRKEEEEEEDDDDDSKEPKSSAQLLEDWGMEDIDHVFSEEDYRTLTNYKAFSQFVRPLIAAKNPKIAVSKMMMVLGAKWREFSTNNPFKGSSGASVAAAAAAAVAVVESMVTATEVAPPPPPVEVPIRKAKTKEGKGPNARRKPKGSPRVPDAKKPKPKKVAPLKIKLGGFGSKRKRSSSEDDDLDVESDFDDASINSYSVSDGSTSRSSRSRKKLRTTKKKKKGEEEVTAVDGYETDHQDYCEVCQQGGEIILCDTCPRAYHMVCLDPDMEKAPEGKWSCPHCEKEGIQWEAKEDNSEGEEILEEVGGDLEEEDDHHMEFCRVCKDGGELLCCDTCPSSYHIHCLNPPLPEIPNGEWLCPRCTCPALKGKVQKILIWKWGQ

What was measured:
[1] = Toxicology studies in BALB/c mice (body weight, serum biochemistry); format: in vivo; settings: 10 mg/kg every other day i.p.
[2] = Cell membrane penetration of peptide design; format: cell-based; settings: histidine instead of phenylalanine (F) at the third position
[3] = molecular target: T1, CHD4 occupancies on promoters in BCBL-1 cells (Homo sapiens, UniProt Q14839); experiment: CUT&RUN-qPCR of CHD4 occupancies on promoters; format: cell-based; settings: ratio VGN73 treated vs non-treated
T1 construct: endogenous in cells; host or cells: BC3, BCBL-1

[4] = test system: BC3, BCBL-1 or Raji cells; experiment: SLAM-seq direct target gene identification; format: cell-based, human
[5] = test system: THP-1 cells; experiment: MTT cell viability assay, THP-1; format: cell-based; settings: 24 hours
[6] = Peptide solubility in water; settings: histidine instead of phenylalanine (F) at the third position
[7] = molecular target: T2, CHD4 and LANA (Homo sapiens, UniProt Q14839); experiment: Peptide pull-down with streptavidin beads from BC3 cells; format: cell-based; settings: biotinylated peptide 10 μM, streptavidin magnetic beads
T2 construct: endogenous in cells; host or cells: BC3

[8] = test system: BC3 cells; experiment: Autophagy by Autophagy Red flow cytometry; format: cell-based; settings: 18 μM, 24 hours, rapamycin 50 nM positive control
[9] = test system: CHD4; experiment: ELISA of VGN73 binding region in CHD4 (CHD4 deletion proteins); settings: OD 450 nm
[10] = test system: U937 cells; experiment: MTT cell viability assay, U937; format: cell-based; settings: 24 hours
[11] = molecular target: CHD4 (Homo sapiens, UniProt Q14839); experiment: ELISA of VGN73 binding region in CHD4 (CHD4 deletion proteins); parameters: made in house; host or cells: Sf9 (recombinant baculovirus); settings: CHD4 1-512, 363-1245, full-length; OD 450 nm
[12] = test system: BC3 cells; experiment: Apoptosis by Annexin V flow cytometry; format: cell-based; settings: 18 μM, 0, 1, 4, 24 hours
[13] = test system: U937 cells; experiment: U937 monocyte-macrophage differentiation model (total RNA-sequencing, flow cytometry); format: cell-based, human
[14] = Maximum tolerated dose in NRG mice; format: in vivo

CC[C@H](C)[C@H](NC(=O)[C@@H](NC(=O)[C@H](C)NC(=O)[C@H](Cc1c[nH]cn1)NC(=O)[C@H](CCCCN)NC(=O)[C@H](Cc1c[nH]c2ccccc12)NC(=O)CCNC(=O)[C@H](CCCNC(=N)N)NC(=O)[C@H](CCCNC(=N)N)NC(=O)[C@H](CCCNC(=N)N)NC(=O)[C@H](CCCN)NC(=O)[C@H](CCCNC(=N)N)NC(=O)[C@H](CCCNC(=N)N)NC(=O)[C@H](CCCCN)NC(=O)[C@H](CCCCN)NC(=O)[C@H](N)CCCNC(=N)N)C(C)C)C(=O)N[C@@H](Cc1ccccc1)C(=O)N[C@@H](Cc1c[nH]c2ccccc12)C(=O)NCC(=O)N[C@@H](CC(N)=O)C(=O)N[C@@H](CC(=O)O)C(=O)N1CCC[C@H]1C(=O)N[C@@H](Cc1ccc(O)cc1)C(=O)NCC(=O)N[C@@H](CC(C)C)C(=O)N[C@@H](CCCCN)C(=O)N[C@@H](CCCCN)C(=O)O [VGN73, (d-Arg}KKRR{ORN}RRR{β-Ala}WKHAVIFWGNDPYGLKK]
body weight [1]: no decreased body weight over three weeks | blood chemistry ([1]; end of experiment): no sign of organ damage | cell membrane penetration [2]: better cell membrane penetration | occupancies of CHD4 on target gene promoters [3]: decreased the occupancies of CHD4 from each promoter, except for Klf6; also recorded: reduced its occupancies | commonly up-regulated direct target genes ([4]; IC50 concentration, 30 min before 4sU, 1.5 hrs labeling, vs PBS and mutant): KLF6, MYADM, FOSB, RGS2, JUN, JUND, CCL3, and PPP1R15A are commonly upregulated among three cell lines | TP53 gene expression ([4]; specific to BC3 cells): induction of TP53 gene expression | sensitivity of THP-1 cells (MTT) [5]: highest sensitivity; also recorded: most sensitive | peptide solubility in water [6]: increased peptide solubility in water | peptide-bound CHD4 or LANA precipitated from cells [7]: precipitated more of CHD4 and LANA than the overall background | autophagy / auto-phagosome formation (Autophagy Red) [8]: induced autophagy in BC3 cells similarly to rapamycin treatment | binding to recombinant CHD4 proteins lacking PHD domain [9]: failed to bind | sensitivity of U937 cells (MTT) [10]: highest sensitivity; also recorded: most sensitive | binding to recombinant CHD4 proteins containing the PHD domain [11]: bound to recombinant CHD4 that encodes 1-512, 363-1245, or the fill-length CHD4 | cellular apoptosis (Annexin V) [12]: induces cellular apoptosis | macrophage and dendritic cell marker on the cell surface (flow cytometry) ([13]; U937, 4 μM 2 days, then PMA 10 ng/mL 3 days): increased macrophage and dendritic cell marker on the cell surface | PMA-mediated upregulated genes after VGN73 pretreatment (total RNA-sequencing) ([13]; U937, 4 or 8 μM 24 hours, then PMA 10 ng/mL 24 hours): significantly increased the repertories of PMA-mediated upregulated genes | MTD ([14]; both sexes, NRG, mouse, in vivo, ip, intraperitoneally every other day): 12.5 mg/kg | mice died ([14]; injections of more than 15 mg/kg): one of eight | dose showing a sign of discomfort such as decreased overall mobility ([14]; intraperitoneal injections): more than 15 mg/kg
